The text below walks through data of patent US20240083851A1 (priority 2020, published 2024).

In this assay the test system is human MSCs. The assay can be described thus: Osteocytic differentiation of MSCs by LAD (Alizarin Red and Von Kossa staining). It counts as cell-based. The conditions noted are these: LAD alone 0.1 μM daily, 3 weeks, like OIM positive control.

Consider `CCN1C[C@]2(OC(=O)c3ccccc3NC(C)=O)CC[C@H](OC)C34C1C(C[C@@H]32)C(=O)C[C@H](OC)[C@H]1C[C@@H]4C(=O)[C@H]1OC` [LAD, (3S,6S,7S,9S,11S,16S)-1-ethyl-6,9,11-trimethoxy-8,13-dioxododecahydro-2H-3,6a,14-(epiethane[1,1,2]triyl)-7,10-methanocyclodeca[b]azocin-3(4H)-yl 2-acetaminobenzoate], for which the “calcium production (Alizarin Red)” value is listed as “induced” and the “mineral production (Von Kossa)” value is “induced”.
